A short description of the assay: Total Fluorescence Counterscreen for Inhibitors of the Interaction of Thyroid Hormone Receptor and Steroid Receptor Coregulator 2. The settings on record: TRb/SRC2 Texas Red total fluorescence interference. (The purpose of a counterscreen is to sort out artefacts and off-target activity.)
Where [1] appears, read: at 106 µM (top of the series) unless noted.

“And” between values parts separate entries of the source, which are not always exact repeats. Equal values may be shown once. The entries are a selection whose mix differs from that of the whole data set. The source made the active and inactive calls. Calls come from the whole dose curve; as a rule, active = well fitted curve in either direction with a large enough effect; inconclusive = small, poorly fitted or top-dose-only effect; inactive = flat fitted curve, though single readings scatter.
% is set by controls: 0 for no effect and ±100 for the full control effect.

As for `C(Cc1nn[nH]n1)Cc1nn[nH]n1`, the fluorescence change, negative = quenching under setting [1] is inactive: -0.0131%. On the same count and under the same terms, as for `Nc1ccc([As](=O)(O)c2ccc([N+](=O)[O-])cc2)cc1`, the figure is inactive: -3.15%. Still for that read-out and setting: the same measure for `O=P(Nc1ccccn1)(c1ccc(Br)cc1)c1ccc(Br)cc1`: inactive: -2.35%; for `CN(C(=O)Cc1ccccc1)[C@H]1CC[C@@]2(CCCO2)C[C@@H]1N1CCCC1`: inactive: -0.726%. For `Cc1cc([N+](=O)[O-])cc([N+](=O)[O-])c1O`, the fluorescence change, negative = quenching is inactive: -1.6% (at 106 µM (top of the series)) and inactive: -5.21% (at 201 µM (top of the series)). `C[C@H]1OP(=O)(Oc2ccccc2)[C@H](O)[C@H](O)[C@H]1N=[N+]=[N-]` (stereo partly drawn): under setting [1], the fluorescence change, negative = quenching is inactive: -0.157%.

As for `O=P(Nc1nc2ccccc2s1)(c1ccccc1)c1ccccc1`, the fluorescence change, negative = quenching under setting [1] was inactive: -3.53%. For the compound `CC(C)C(=O)NC(Sc1ccccc1)C(Cl)(Cl)Cl` (stereo not drawn), the fluorescence change, negative = quenching under setting [1] was inactive: -0.0628%. For the compound `O=P(Nc1nccs1)(c1ccccc1)c1ccccc1`, the fluorescence change, negative = quenching under setting [1] was inactive: -0.404%. As to `c1nnnn1CCn1cnnn1`, the fluorescence change, negative = quenching under setting [1] is inactive: -1.6%. Turning to `C[C@H]1OP(=O)(Oc2ccccc2)C[C@@H]2O[C@@H]21` (stereo partly drawn), under setting [1], the fluorescence change, negative = quenching was inactive: -2.34%. Turning to `C[C@@H]1C=CCP(=O)(Oc2ccccc2)O1` (stereo partly drawn), the fluorescence change, negative = quenching under setting [1] is inactive: -1.46%. On the same count and under the same terms, as for `CC(=O)Nc1ccc(Oc2c([N+](=O)[O-])cc([N+](=O)[O-])cc2[N+](=O)[O-])cc1`, the figure is inactive: 0.36%; as for `CC(=O)Nc1ccc([As](=O)(O)O)c(O)c1`, inactive: -1.9%. `O=P1(Nc2nc3ccc(Cl)cc3s2)COc2ccccc2O1` (stereo not drawn): under setting [1], the fluorescence change, negative = quenching is inactive: -2.55%. On the same count and under the same terms, the same measure for `CC(C)(C)C(=O)NC(Sc1ccccc1)C(Cl)(Cl)Cl` (stereo not drawn): inactive: 0.66%; for `CCC(=O)N1C2C3N(C(=O)CC)C1C1N(C(=O)CC)C(C(N1C(=O)CC)N3C(=O)CC)N2C(=O)CC`: inactive: 0.639%; for `O=C(OC1CN2CCC1CC2)c1ccccc1` (stereo not drawn): inactive: -1.15%. For the compound `CC(=O)NC(SC(=S)N(CC(C)C)CC(C)C)C(Cl)(Cl)Cl` (stereo not drawn), under setting [1], the fluorescence change, negative = quenching was inactive: 3.69%. For `Cc1ccc(OP(=O)(Nc2ccccn2)Oc2ccc(C)cc2)cc1`, the fluorescence change, negative = quenching under setting [1] was inactive: 0.554%. With `COC(=O)c1cc2c(s1)N=C(c1ccccc1)N(C)P2(=O)N1CCOCC1` (stereo not drawn), the fluorescence change, negative = quenching under setting [1] is inactive: 1.1%. As to `O=c1c2cc([N+](=O)[O-])ccc2[nH]c2c([N+](=O)[O-])cc([N+](=O)[O-])cc12`, the fluorescence change, negative = quenching under setting [1] was inactive: -9.98%. Same read-out and setting: as for `CN(C)C(=O)Oc1noc2ccccc12`, the figure is inactive: -1.93%; as for `Cc1ccccc1OP(=O)(Nc1ccccn1)Oc1ccccc1C`, inactive: -0.587%.

Consider `Cc1ccc(NP(=O)(Oc2cccc(C)c2)Oc2cccc(C)c2)nc1`, for which the fluorescence change, negative = quenching under setting [1] was inactive: -1.02%.

As to `CCOC(=O)NC(Sc1ccccc1)C(Cl)(Cl)Cl` (stereo not drawn), the fluorescence change, negative = quenching under setting [1] was inactive: 0.568%.

In the case of `c1ccc(-c2nn[nH]n2)c(-c2nn[nH]n2)c1`, the fluorescence change, negative = quenching under setting [1] is inactive: -4%.

Take `CCNC(=S)/N=C(\N)N[N+](=O)[O-]`: under setting [1], the fluorescence change, negative = quenching was inactive: -3.8%. Same read-out and setting: as for `O=C(NC1CCS(=O)(=O)C1)NP(=S)(Oc1ccccc1)Oc1ccccc1` (stereo not drawn), the figure is inactive: -3.51%; as for `Nc1cccc2ccc([As](=O)(O)O)cc12`, inactive: 10.2%; as for `CCN(N=Nc1nonc1N)c1nonc1N`, inactive: 1.49%.

As to `O=P(Nc1nc2ccc(Cl)cc2s1)(c1ccccc1)c1ccccc1`, the fluorescence change, negative = quenching under setting [1] is inactive: -3.16%.

Take `CC(=O)Nc1ccc([As](=O)(O)O)cc1`: the fluorescence change, negative = quenching under setting [1] is inactive: -3.83%.

Consider `O=C(O)c1ccccc1[As](=O)(O)O`, for which the fluorescence change, negative = quenching under setting [1] was inactive: -2.7%. On the same count and under the same terms, as for `Cc1ccc(NP(=O)(Oc2ccccc2F)Oc2ccccc2F)nc1`, the figure is inactive: 0.648%. Regarding `Cc1cc(SC(NC(=O)c2ccc(F)cc2)C(Cl)(Cl)Cl)ncn1` (stereo not drawn), the fluorescence change, negative = quenching under setting [1] is inactive: 0.232%. Still for that read-out and setting: as for `O=C(NC(Sc1ccncn1)C(Cl)(Cl)Cl)c1ccccc1` (stereo not drawn), the figure is inactive: -1.67%; as for `Cc1c2non([O-])c-2c(C)[n+](=O)[n+]1[O-]`, inactive: -0.434%; as for `Oc1ccccc1CNc1ccccn1`, inactive: -0.226%. As for `CC(C)OP(=O)(OC(C)C)SCCNS(=O)(=O)c1ccccc1`, the fluorescence change, negative = quenching under setting [1] is inactive: -8.64% [at 201 µM]. Regarding `Nc1cc(N)c2nonc2c1[N+](=O)[O-]`, under setting [1], the fluorescence change, negative = quenching is inactive: -0.486%. For `CC(C)CC(=O)NC(Sc1ccc(Cl)cc1)C(Cl)(Cl)Cl` (stereo not drawn), the fluorescence change, negative = quenching under setting [1] is inactive: -1.77%.

Consider `Cc1ccc(N/C(=N/P(=O)(N2CCOCC2)N2CCOCC2)N2CCOCC2)cc1`, for which the fluorescence change, negative = quenching under setting [1] is inactive: -0.282%. On to `NC(=O)c1cc([N+](=O)[O-])cc([N+](=O)[O-])c1N`, for which the fluorescence change, negative = quenching under setting [1] was inactive: -3.57%.

Consider `CN1CCCC(OC(=O)C(c2ccccc2)c2ccccc2)C1` (stereo not drawn), for which, under setting [1], the fluorescence change, negative = quenching is inactive: 3.89%.

As for `Clc1ccc(Cl)c(NC2=NCC(CBr)S2)c1` (stereo not drawn), under setting [1], the fluorescence change, negative = quenching was inactive: 5.54%. Still for that read-out and setting: the same measure for `Cc1ccc(OP(=O)(Nc2nccs2)Oc2ccc(C)cc2)cc1`: inactive: -2.32%. Turning to `COc1ccccc1OP(=O)(Nc1ccc(C)cn1)Oc1ccccc1OC`, the fluorescence change, negative = quenching under setting [1] was inactive: -0.147% [at 53 µM].

As for `CCN(/C(=N/P(=O)(N1CCOCC1)N1CCOCC1)N1CCOCC1)c1ccc(OC)cc1`, the fluorescence change, negative = quenching under setting [1] was inactive: -1.68%. `C[N+]1=C2C=CC=CC=C2SC12C([N+](=O)[O-])=CC([N+](=O)[O-])=C[C-]2[N+](=O)[O-]` (stereo not drawn): the fluorescence change, negative = quenching under setting [1] is inactive: -4.96%. On the same count and under the same terms, the same measure for `Nc1ccc([As](=O)(O)c2ccc(N)cc2)cc1`: inactive: -0.995%; for `CC(=O)C1=CCCC2CCC1N2` (stereo not drawn): inactive: 5.03% and inactive: 1.22%. On to `CC1CCN(C(=O)Oc2c(Cl)cc(Cl)c3cccnc23)CC1`, for which, under setting [1], the fluorescence change, negative = quenching is inactive: 2.64%. Same read-out and setting: as for `CN(C)C(=O)OCCc1n(C)cc[n+]1C`, the figure is inactive: 0.185%; as for `CC(C)=N/N=C(\N)N[N+](=O)[O-]`, inactive: 1.17%. Same read-out and setting: as for `O=[N+]([O-])c1ccc([N+](=O)[O-])cc1`, the figure is inactive: -3.36% [at 201 µM]; as for `COc1ccc(C2=NCC(CBr)S2)cc1` (stereo not drawn), inactive: 0.462%. Take `CCc1nc2c(n1)c1c(non1O)c1c2no[n+]1[O-]`: the fluorescence change, negative = quenching under setting [1] was inactive: 9.62%.

Take `O=[N+]([O-])c1cc([N+](=O)[O-])c(CCNc2ccccc2)c([N+](=O)[O-])c1`: the fluorescence change, negative = quenching under setting [1] is inactive: -3.34%. Same read-out and setting: the same measure for `Cc1ccc(NP(=O)(Oc2ccccc2)Oc2ccccc2)nc1`: inactive: -1.45%; for `O=[N+]([O-])c1cccc2n[nH]nc12`: inactive: -1.91%; for `CC(=O)N1C2C3N(C(C)=O)C1C1N(C(C)=O)C(C(N1C(C)=O)N3C(C)=O)N2C(C)=O`: inactive: 1.24%. As to `O=[N+]([O-])c1ncn(CCn2ncnc2[N+](=O)[O-])n1`, the fluorescence change, negative = quenching under setting [1] was inactive: -1.41%. With `CC(C)(C)C(=O)NC(Sc1ccncn1)C(Cl)(Cl)Cl` (stereo not drawn), the fluorescence change, negative = quenching under setting [1] was inactive: -1.27%. Consider `O=C(O)CNc1ccc([As](=O)(O)O)cc1`, for which the fluorescence change, negative = quenching under setting [1] is inactive: -2.22%. Regarding `O=[N+]([O-])c1cccc(NC2=NCC(CBr)S2)c1` (stereo not drawn), under setting [1], the fluorescence change, negative = quenching was inactive: -0.724%. Still for that read-out and setting: the same measure for `O=C(Nc1cc([As](=O)(O)O)ccc1O)c1ccccc1`: inactive: -1.78%.

These data come from PubChem BioAssay AID1479 (National Center for Advancing Translational Sciences (NCATS), 2009).
